Here are results for one molecule from PMC2867052 (Journal of contaminant hydrology, 2009).

Where two headings read alike, the source gives them in different places.

For the data set the following is noted: 10% by weight HPCD.

`CCCCc1ccccc1` [butylbenzene]: the “10% HPCD Enhancement Factor (E°)” value (single-component organic liquid) is 121 and the “10% HPCD Enhancement Factor (E°)” value (three-component organic liquid (Tol-EB-BB)) came out at 124.
